The text below walks through data of article PMC2784932 (Biochemistry, 2009).

This assay concerns the target (Pro-Hyp-Gly)10. The assay is described as follows: critical concentration.

For (Pro-Hyp-Gly)10 (peptide), the critical concentration was 2 mg/mL.
